Experimental properties from OPERA 2.9

Values as listed in the OPERA 2.9 repository of K. Mansouri.

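OPERA's authors assembled the values from existing databases and did not measure them anew. One number stands for a compound and property, with no spread given. Method and conditions are not stated for these values. Where a salt, mixture or single isomer is drawn, the source does not say that exactly this form was tested. Some entries may be limits or estimates that an upstream database listed as plain numbers.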

The melting point is given in degrees Celsius. Boiling points are in °C, nominally at 760 mmHg. The octanol-water partition coefficient is given as log10; larger values mean a more lipophilic compound. Solubility in water is on a log10 molar scale (set defined at 25 °C). Vapor pressure is log10 of mmHg; the set covers 15 to 30 °C, mostly 20 to 25 °C. The unbound fraction in human plasma runs from 0 (all bound) to 1 (all free). Clint is human hepatic intrinsic clearance in µL/min per million cells; 0 means that no clearance was seen.

CCCCC(CC)COP(=O)(OCC(CC)CCCC)OCC(CC)CCCC (stereo unspecified) is reported with log Kow 4.15 and water solubility -6.192 (log10 mol/L). CC(=O)OCc1ccc2c(c1)OCO2 has mp 51 °C and water solubility -2.25 (log10 mol/L) and vapor pressure -2.73 (log10 mmHg). For CC(S)CC(=O)OCC(COC(=O)CC(C)S)(COC(=O)CC(C)S)COC(=O)CC(C)S (stereo unspecified) the data give BP 358.9 °C and log Kow 3.99 and vapor pressure -11.18 (log10 mmHg). CC(C)(C)C(=O)OCOP(=O)(COCCn1cnc2c(N)ncnc21)OCOC(=O)C(C)(C)C is reported with log Kow 0.8 and water solubility -2.899 (log10 mol/L) and fraction unbound 0.96. Listed for CCCCCCCCCCCCCCCC(=O)OCCO: mp 59.45 °C and water solubility -4.603 (log10 mol/L). The entry for C=C(C)C(=O)OCCOC(=O)c1c(CC(O)CCl)cccc1C(=O)O (stereo unspecified) lists mp -39.65 °C and log Kow 2.28 and water solubility -2.806 (log10 mol/L). CN(/N=C/C1=[N+](C)c2ccccc2C1(C)C)c1ccccc1.[Cl-] is reported with mp 211.3 °C and log Kow 1.2. Listed for C=CCCC(=O)C1=CCCC(C)(C)C1: water solubility -3.534 (log10 mol/L) and vapor pressure -1.998 (log10 mmHg).

CC1=[N+](CCCCS(=O)(=O)[O-])c2ccc3ccccc3c2C1(C)C has water solubility -2.208 (log10 mol/L) and vapor pressure -9.698 (log10 mmHg). The entry for CS(=O)(=O)c1ccc(F)c(C(=O)O)c1 lists mp 192.5 °C and BP 322 °C and log Kow 0.5 and water solubility -1.944 (log10 mol/L) and vapor pressure -4.985 (log10 mmHg). The entry for O=C(c1ccccc1)c1ccc(O)cc1O lists fraction unbound 0.0113 and Clint 39.3 µL/min/10^6 cells. Listed for CCn1c(O)c(N=Nc2ccc(C(=O)OCCOCCOC)cc2)c(C)c(C#N)c1=O: mp 182.3 °C and log Kow 4.7 and water solubility -7.03 (log10 mol/L). Listed for CCCCN(c1nc(N(CCCC)C2CC(C)(C)NC(C)(C)C2)nc(N(CCCCCCN(c2nc(N(CCCC)C3CC(C)(C)NC(C)(C)C3)nc(N(CCCC)C3CC(C)(C)NC(C)(C)C3)n2)C2CC(C)(C)NC(C)(C)C2)C2CC(C)(C)NC(C)(C)C2)n1)C1CC(C)(C)NC(C)(C)C1: log Kow 5.5 and water solubility -6.153 (log10 mol/L). The entry for O=c1[nH]c2ccccc2c(=O)n1CCO lists mp 256.2 °C and log Kow 0.6 and water solubility -3.113 (log10 mol/L) and vapor pressure -9.907 (log10 mmHg). Listed for CCOC(=O)C(C)(C)c1ccc(C(=O)C2CC2)cc1: mp 57.2 °C and BP 330 °C and water solubility -3.876 (log10 mol/L). Listed for C=CC(=C)CCCC(C)(C)OC(C)=O: log Kow 4.4 and water solubility -3.597 (log10 mol/L) and vapor pressure -1.156 (log10 mmHg).

CC(C)N(C)C has log Kow 0.89 and vapor pressure 2.176 (log10 mmHg). Listed for CCCCC(CC)COCCCN (stereo unspecified): mp -89.9 °C and log Kow 2.6. For Nc1c(/N=N/c2ccc(S(=O)(=O)[O-])cc2S(=O)(=O)[O-])cc(S(=O)(=O)[O-])c2cc(S(=O)(=O)[O-])c(/N=N/c3ccc([N+](=O)[O-])cc3S(=O)(=O)[O-])c(O)c12.[Na+].[Na+].[Na+].[Na+].[Na+] the data give log Kow -4.38 and vapor pressure -9.837 (log10 mmHg). CCCCCC1CCCC1=O (stereo unspecified) is reported with log Kow 3.28 and water solubility -2.743 (log10 mol/L) and vapor pressure -0.937 (log10 mmHg). C[C@H](N[C@@H]1CCc2[nH]c3ccccc3c2C1)c1ccccc1.Cl is reported with log Kow 2.9 and water solubility -2.213 (log10 mol/L) and vapor pressure -9.034 (log10 mmHg). C[C@H](CCC(=O)O)[C@H]1CC[C@H]2[C@@H]3[C@H](O)C[C@@H]4C[C@H](O)CC[C@]4(C)[C@H]3CC(=O)[C@]12C is reported with log Kow 2.97 and vapor pressure -7.728 (log10 mmHg).

4 of these entries, quoted again:

CCCCCCCCCCCCCCCC(=O)OCCO is reported with mp 59.45 °C and water solubility -4.603 (log10 mol/L).
CC(S)CC(=O)OCC(COC(=O)CC(C)S)(COC(=O)CC(C)S)COC(=O)CC(C)S (stereo unspecified) is reported with BP 358.9 °C and log Kow 3.99 and vapor pressure -11.18 (log10 mmHg).
CCOC(=O)C(C)(C)c1ccc(C(=O)C2CC2)cc1 is reported with mp 57.2 °C and BP 330 °C and water solubility -3.876 (log10 mol/L).
CCCCCC1CCCC1=O (stereo unspecified) is reported with log Kow 3.28 and water solubility -2.743 (log10 mol/L) and vapor pressure -0.937 (log10 mmHg).